Patent US8968784B2, “Method for preparing hydro/organo gelators from disaccharide sugars by biocatalysis and their use in enzyme-triggered drug delivery” (Research Foundation of the City University of New York, priority 2006, dated 2015)

Test: Gelation ability in water and organic solvents (inverted tube, visual)
Type: physicochemical
Details: ten solvents tested (water, polar and nonpolar organic solvents)
Procedure: Typically, a gelator (0.01-2 mg) in a required solvent (0.1-1 mL) was heated until the solid was completely dissolved. The resulting solution was slowly allowed to cool to room temperature and gelation was visually observed. […] All gels obtained were thermally reversible. Above their gelation temperature, the gels dissolved in water but could be returned to their original gel state upon cooling.
Typically, the gelator (0.01-2 mg) and required solvent (0.1-1 mL) were placed into a 2 mL scintillation vial, which was then sealed with a screw cap. The vial was heated and shook until the solid was completely dissolved. The solution was set aside and allowed to cool to room temperature. Gelation was considered to have occurred when no gravitational flow in the inverted tube was observed.

## Amygdalin Butyrate [derivative 1]
  number of solvents gelled: two solvents out of ten
